Measurements reported in publication PMC7664906 (International Journal of Molecular Sciences, 2020).

Chains of the proteins cited; added tags and fusions are not shown. Lines headed by an entry give the natural chain unless they say otherwise; changes in a name come on top.
UniProt P0DPD6: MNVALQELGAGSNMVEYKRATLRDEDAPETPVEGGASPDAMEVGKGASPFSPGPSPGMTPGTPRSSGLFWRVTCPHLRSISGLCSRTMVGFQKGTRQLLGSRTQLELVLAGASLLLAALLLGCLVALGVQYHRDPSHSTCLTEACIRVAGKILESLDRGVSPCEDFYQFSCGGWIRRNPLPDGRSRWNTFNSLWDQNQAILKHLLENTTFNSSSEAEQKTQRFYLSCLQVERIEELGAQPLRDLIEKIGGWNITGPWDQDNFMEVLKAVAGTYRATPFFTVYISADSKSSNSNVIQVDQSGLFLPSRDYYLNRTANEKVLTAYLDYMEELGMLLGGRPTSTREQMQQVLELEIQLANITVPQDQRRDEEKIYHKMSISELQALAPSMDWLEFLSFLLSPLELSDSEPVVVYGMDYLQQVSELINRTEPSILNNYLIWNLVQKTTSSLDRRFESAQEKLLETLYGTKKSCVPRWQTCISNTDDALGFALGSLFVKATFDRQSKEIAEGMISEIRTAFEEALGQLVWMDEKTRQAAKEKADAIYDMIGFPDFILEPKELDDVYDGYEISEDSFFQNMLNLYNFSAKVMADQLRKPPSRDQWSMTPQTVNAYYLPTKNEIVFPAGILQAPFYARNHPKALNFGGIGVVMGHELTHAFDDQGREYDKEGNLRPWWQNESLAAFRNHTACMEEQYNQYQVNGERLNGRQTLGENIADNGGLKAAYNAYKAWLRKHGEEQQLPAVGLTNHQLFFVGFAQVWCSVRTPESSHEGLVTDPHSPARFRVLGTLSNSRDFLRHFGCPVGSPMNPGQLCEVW

Molecular target: ECE-2 (Homo sapiens, UniProt P0DPD6)
Experiment: In vitro peptide stability to ECE-2 by HPLC
Conditions: 0.25 µg ECE-2, pH 5.5 (GLP-1 also at neutral pH), 37 °C, up to 24 h, HPLC quantification, n = 2-3

Structure (SMILES): CC[C@H](C)[C@H](NC(=O)[C@H](Cc1ccccc1)NC(=O)[C@H](CCC(=O)O)NC(=O)[C@H](CCCCN)NC(=O)[C@H](C)NC(=O)[C@H](C)NC(=O)[C@H](CCC(N)=O)NC(=O)CNC(=O)[C@H](CCC(=O)O)NC(=O)[C@H](CC(C)C)NC(=O)[C@H](Cc1ccc(O)cc1)NC(=O)[C@H](CO)NC(=O)[C@H](CO)NC(=O)[C@@H](NC(=O)[C@H](CC(=O)O)NC(=O)[C@H](CO)NC(=O)[C@@H](NC(=O)[C@H](Cc1ccccc1)NC(=O)[C@@H](NC(=O)CNC(=O)[C@H](CCC(=O)O)NC(=O)[C@H](C)NC(=O)[C@@H](N)Cc1c[nH]cn1)[C@@H](C)O)[C@@H](C)O)C(C)C)C(=O)N[C@@H](C)C(=O)N[C@@H](Cc1c[nH]c2ccccc12)C(=O)N[C@@H](CC(C)C)C(=O)N[C@H](C(=O)N[C@@H](CCCCN)C(=O)NCC(=O)N[C@@H](CCCNC(=N)N)C(N)=O)C(C)C
- In vitro peptide degradation by / resistance to ECE-2 (in words): extensive peptide degradation
